## Ab-14 heavy chain CDR variants: yeast mating affinities

From the AlphaSeq antibody data of Li et al. 2023 (doi:10.1038/s41467-023-39022-2), copy in the FLAb collection.

The target is the same throughout: PDVDLGDISGINAS, from the HR2 region of SARS-CoV-2 spike.

Parent: Ab-14, a human scFv built as VH, the linker GGGGSGGGGSGGGGS, VL. Only the CDRs of the heavy chain vary.
VH: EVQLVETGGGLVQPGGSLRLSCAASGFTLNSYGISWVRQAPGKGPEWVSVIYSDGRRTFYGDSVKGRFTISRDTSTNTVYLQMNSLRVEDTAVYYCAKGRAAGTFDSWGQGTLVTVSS
VL: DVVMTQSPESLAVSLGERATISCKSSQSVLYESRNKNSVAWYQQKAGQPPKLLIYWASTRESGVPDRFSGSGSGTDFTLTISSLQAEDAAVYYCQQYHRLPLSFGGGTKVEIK

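The starting antibody came from a phage panning campaign against this peptide. Designed CDR sequences, proposed from the first random library and measured here. Their group label is 14H_En_Gibbs (En: ensemble of fine-tuned language models; Gibbs: Gibbs sampling). The scFvs were displayed on barcoded MATa yeast, the peptide on MATalpha yeast. Pairs that bind mate more often; barcode pairs of the diploids are counted by sequencing. Each replicate has its own calibration line, from reference interactions of the BCL2 family. There are six technical replicates.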

The parent's heavy chain CDRs are GFTLNSYGIS, VIYSDGRRTFYGDSVK, GRAAGTFDS; each variant's own CDRs replace them letter for letter. Values are log10 of the apparent Kd in nM; lower means stronger binding. A mean of the replicates is given; it leaves out those without a signal. A pair that was not seen in that replicate is written "n.d."; this usually means weak binding, but a binder can also be missed.

| CDR-H1 | CDR-H2 | CDR-H3 | log10 Kd (nM) by replicate | log10 Kd (nM), mean | control signals |
|---|---|---|---|---|---|
| GYDMEDYGIS | VIYADGSRAAYGDNFK | GELAGTFDM | n.d. n.d. n.d. -0.33 0.01 n.d. | -0.16 | 0/18 |
| GFNLDEYGIS | VIYADGQRTYYTQKVK | GGIQDANMG | n.d. n.d. n.d. n.d. n.d. n.d. | n.d. | 1/18 (1.26) |
| GFGLGEYGIS | VIYADGTRTAYVTKVK | GVIAGMFFT | n.d. n.d. n.d. n.d. n.d. n.d. | n.d. | 0/18 |
| GKSLDEYGIS | VIYADGKRTHYVENVK | GQFGGNLLD | n.d. n.d. n.d. n.d. n.d. n.d. | n.d. | 0/18 |
| GFSLGEYGIS | VIYADGERTNYVSNFK | GVHAGTFVL | n.d. n.d. n.d. n.d. n.d. n.d. | n.d. | 0/18 |
| GFALNEYGIS | VIYADGIRQVYANKVK | GNQGGTLLI | n.d. n.d. n.d. n.d. n.d. n.d. | n.d. | 0/18 |
| GFNLNEYGIS | VIYADGQRLSYDDKVK | GQIGGTFND | 0.58 0.40 0.04 -0.16 -0.07 0.46 | 0.21 | 0/18 |
| GADLNEYGIS | VIYADGRRVYYENSFK | GHVAGTFDS | 0.05 -0.29 0.25 -0.23 -0.12 0.01 | -0.05 | 0/18 |
| GNVLDEYGIS | VIYADGMRTSYQQNFK | GQEGDNFVT | n.d. n.d. n.d. n.d. n.d. n.d. | n.d. | 0/18 |
| GFDLDEYGIS | VIYADGARKAYQNQFK | GGQAGTFVN | n.d. 1.82 1.50 0.99 2.17 1.66 | 1.63 | 0/18 |
| GFDINEYGIS | VIFADGMRTAYDNSVK | GQMAGFFIN | n.d. n.d. n.d. 2.70 n.d. n.d. | 2.70 | 0/18 |
| GMDLEEYGIS | VIYADGSRTSYQEKVK | GLVGGMLDV | n.d. n.d. n.d. n.d. n.d. n.d. | n.d. | 1/18 (0.29) |
| GFDVDKYGIS | VIYADGARKAYQNQFK | GGQAGTFVN | n.d. 2.73 n.d. n.d. n.d. 3.07 | 2.90 | 0/18 |
| GKDLDEYGIS | VIYADGRRTFYLNTVK | GEDGFDLNQ | n.d. n.d. 2.01 n.d. n.d. n.d. | 2.01 | 0/18 |
| GFDVDEYGIS | VIYADGKRSMYANKVK | GGIGGMFFV | n.d. n.d. n.d. 2.36 n.d. n.d. | 2.36 | 1/18 (3.56) |
| GFDLTEYGIS | VIYADGRRTQYQDSVK | GLNGGIIVV | n.d. n.d. n.d. n.d. n.d. n.d. | n.d. | 0/18 |
| GFDLDEYGIS | VIYADGVRQAYIDSVK | GNWSGTMMY | n.d. n.d. n.d. n.d. n.d. n.d. | n.d. | 0/18 |
| GFQLDEYGIS | VIYADGERTMYSNDVK | GTEGGTFQM | 0.78 n.d. 2.38 2.03 n.d. 1.36 | 1.64 | 0/18 |
| GNTLDEYGIS | VIYADGVRMAYINKFK | GMMTGTFDQ | n.d. n.d. n.d. n.d. n.d. n.d. | n.d. | 0/18 |
| EFDLQEYGIS | VIYADGKRTAYKDNVK | GNGGGVFIA | n.d. n.d. n.d. n.d. n.d. 2.99 | 2.99 | 0/18 |
| GFNLDEYGIS | VIYADGMRQSYAQNVK | GVHVCWFGL | n.d. n.d. n.d. n.d. n.d. n.d. | n.d. | 0/18 |
| GFSLDEYGIS | VIYADGFRTAYTNSVK | GLMQQGRTV | n.d. n.d. n.d. n.d. n.d. n.d. | n.d. | 0/18 |
| GFDLEEMGIN | VIYADGSRKVYTDAVK | GEVSGDFDK | n.d. n.d. n.d. -0.16 n.d. n.d. | -0.16 | 0/18 |
| GFSLNEFGIS | VIYADGVRTFYTDNVK | GINVVALVI | n.d. n.d. n.d. n.d. n.d. n.d. | n.d. | 0/18 |
| GFDLDEYGVS | VIYADGMRMAYQNDVK | GQKGDVFFM | n.d. n.d. n.d. n.d. n.d. n.d. | n.d. | 0/18 |
| GFDLDEYGVS | VIYADGERTFYADKVK | GTHGETRDI | n.d. n.d. n.d. n.d. n.d. n.d. | n.d. | 0/18 |
| GMDLEEYGIS | VIYADGMRTYAVDSVK | GDQGGTLGY | n.d. 2.50 n.d. n.d. n.d. n.d. | 2.50 | 0/18 |
| GFDVDEYGIS | VIYADGKRSMYANSVK | GGIGGMFFQ | n.d. n.d. n.d. 2.27 n.d. n.d. | 2.27 | 0/18 |
| GFNLDEYGIS | VIYADGTRRYYADSFK | GDEVVVNSI | n.d. n.d. n.d. n.d. n.d. n.d. | n.d. | 0/18 |
| GFSIDEYGIS | VIYADGMRTAYVESVK | GTIDENFNT | n.d. n.d. n.d. 3.49 3.69 n.d. | 3.59 | 0/18 |
| GFELEEYGIS | VIYADGQRTFYADNVK | GKVDTVVHY | -0.18 -0.04 -0.08 -0.34 -0.05 0.08 | -0.10 | 1/18 (1.86) |
| GKDIEEYGIS | VIYADGMRQAYAESVK | GQVAGIGKF | n.d. n.d. n.d. n.d. n.d. n.d. | n.d. | 0/18 |
| GFDLNEYGIS | VIYADGMRTFYADKAK | GNAGIVVEV | n.d. n.d. n.d. n.d. n.d. n.d. | n.d. | 0/18 |

The 3 strongest on average among those seen in every replicate, once more:

CDR-H1,CDR-H2,CDR-H3,log10 Kd (nM) by replicate,"log10 Kd (nM), mean",control signals
GFELEEYGIS,VIYADGQRTFYADNVK,GKVDTVVHY,-0.18 -0.04 -0.08 -0.34 -0.05 0.08,-0.10,1/18 (1.86)
GADLNEYGIS,VIYADGRRVYYENSFK,GHVAGTFDS,0.05 -0.29 0.25 -0.23 -0.12 0.01,-0.05,0/18
GFNLNEYGIS,VIYADGQRLSYDDKVK,GQIGGTFND,0.58 0.40 0.04 -0.16 -0.07 0.46,0.21,0/18

The parent sequence was in this pool as ten entries: three were never detected, three once, and four in most replicates, with averages from 0.34 to 2.37. Nonspecific signal, from three strains lacking the peptide, appeared in 1% of pairings of all heavy chain designs, centred on 2.08 (5% of these signals below 0.84); values are not corrected for it. The control count says in how many pairings with the empty strains this scFv gave a signal, with their mean in brackets. In the paper, a design with two or fewer of six values counts as a poor binder. Values of this round are not directly comparable with the first-round values of the same sequences.